{
  "source": "patent US20230381112A1",
  "about": "“Compositions and Methods of Manufacturing Amphiphilic Block Copolymers that Form Nanoparticles in Situ” (Vaccuitech North America, Inc., priority 2020, published 2023)",
  "assay": "DLS temperature sweep in PBS: hydrodynamic diameter (DH), transition temperature (Ttr), solubility/aggregation",
  "data": [
    {"substance": "CN-p[(NIPMAM)f1-co-(BnMAM)f2]-b-p(HPMA)a-DTB [Compound 200]", "values": [
      {"measurement": "particle diameter in solution above the transition temperature", "result": "~53", "unit": "nm"}
    ]}
  ]
}
